Biological target: Vasopressin V1a receptor (Homo sapiens) (UniProt P37288)
Test: Antagonist activity at human V1a receptor transfected in HEK293 cells at 1 uM relative to control
Type: functional, cell-based
Set-up: scale not given: the % may be the effect or the level left
Conditions: filed as antagonist

Chains of the proteins cited; added tags and fusions are not shown.
UniProt P37288, whole entry, looked up: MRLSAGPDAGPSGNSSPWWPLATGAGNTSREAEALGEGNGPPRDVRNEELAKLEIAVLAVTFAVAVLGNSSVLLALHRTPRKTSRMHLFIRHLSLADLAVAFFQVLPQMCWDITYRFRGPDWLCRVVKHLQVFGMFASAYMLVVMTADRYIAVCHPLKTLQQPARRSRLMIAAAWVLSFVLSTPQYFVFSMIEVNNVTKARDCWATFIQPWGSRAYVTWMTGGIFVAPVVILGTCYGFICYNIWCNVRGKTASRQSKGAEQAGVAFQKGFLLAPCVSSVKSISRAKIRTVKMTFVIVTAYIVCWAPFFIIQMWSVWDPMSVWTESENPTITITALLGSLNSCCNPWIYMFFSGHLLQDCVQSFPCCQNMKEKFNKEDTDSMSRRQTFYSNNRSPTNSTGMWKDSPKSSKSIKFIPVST

In the case of `CCOc1ccc(C[C@H]2NC(=O)CCSSC[C@@H](C(=O)N3CCC[C@H]3C(=O)N[C@@H](CCCN)C(=O)NCC(N)=O)NC(=O)[C@H](CC(N)=O)NC(=O)[C@H]([C@@H](C)O)NC(=O)[C@H]([C@@H](C)CC)NC2=O)cc1`, the Activity is reported as 86%.
